Consider one sequence from US10087225B2, “Formulation of MK2 inhibitor peptides” (MOERAE MATRIX, INC., priority 2015, dated 2018).

Chains of the proteins cited; added tags and fusions are not shown. Lines headed by an entry give the natural chain unless they say otherwise; changes in a name come on top. Residues count along the entry.
UniProt O96017, whole entry: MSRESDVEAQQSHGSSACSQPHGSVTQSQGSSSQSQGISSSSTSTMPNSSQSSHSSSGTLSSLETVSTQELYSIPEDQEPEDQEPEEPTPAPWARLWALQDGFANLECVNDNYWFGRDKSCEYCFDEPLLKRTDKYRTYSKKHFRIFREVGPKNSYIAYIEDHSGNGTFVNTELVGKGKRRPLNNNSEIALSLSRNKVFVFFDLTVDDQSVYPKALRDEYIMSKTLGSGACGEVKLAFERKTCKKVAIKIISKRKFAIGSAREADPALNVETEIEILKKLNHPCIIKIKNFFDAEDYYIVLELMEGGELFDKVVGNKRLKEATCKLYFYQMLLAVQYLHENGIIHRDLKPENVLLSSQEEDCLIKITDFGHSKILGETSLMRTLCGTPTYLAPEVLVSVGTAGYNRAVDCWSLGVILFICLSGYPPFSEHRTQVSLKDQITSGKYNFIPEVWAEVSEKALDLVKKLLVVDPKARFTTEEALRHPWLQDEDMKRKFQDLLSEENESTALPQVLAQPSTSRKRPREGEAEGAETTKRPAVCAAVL
UniProt P53355: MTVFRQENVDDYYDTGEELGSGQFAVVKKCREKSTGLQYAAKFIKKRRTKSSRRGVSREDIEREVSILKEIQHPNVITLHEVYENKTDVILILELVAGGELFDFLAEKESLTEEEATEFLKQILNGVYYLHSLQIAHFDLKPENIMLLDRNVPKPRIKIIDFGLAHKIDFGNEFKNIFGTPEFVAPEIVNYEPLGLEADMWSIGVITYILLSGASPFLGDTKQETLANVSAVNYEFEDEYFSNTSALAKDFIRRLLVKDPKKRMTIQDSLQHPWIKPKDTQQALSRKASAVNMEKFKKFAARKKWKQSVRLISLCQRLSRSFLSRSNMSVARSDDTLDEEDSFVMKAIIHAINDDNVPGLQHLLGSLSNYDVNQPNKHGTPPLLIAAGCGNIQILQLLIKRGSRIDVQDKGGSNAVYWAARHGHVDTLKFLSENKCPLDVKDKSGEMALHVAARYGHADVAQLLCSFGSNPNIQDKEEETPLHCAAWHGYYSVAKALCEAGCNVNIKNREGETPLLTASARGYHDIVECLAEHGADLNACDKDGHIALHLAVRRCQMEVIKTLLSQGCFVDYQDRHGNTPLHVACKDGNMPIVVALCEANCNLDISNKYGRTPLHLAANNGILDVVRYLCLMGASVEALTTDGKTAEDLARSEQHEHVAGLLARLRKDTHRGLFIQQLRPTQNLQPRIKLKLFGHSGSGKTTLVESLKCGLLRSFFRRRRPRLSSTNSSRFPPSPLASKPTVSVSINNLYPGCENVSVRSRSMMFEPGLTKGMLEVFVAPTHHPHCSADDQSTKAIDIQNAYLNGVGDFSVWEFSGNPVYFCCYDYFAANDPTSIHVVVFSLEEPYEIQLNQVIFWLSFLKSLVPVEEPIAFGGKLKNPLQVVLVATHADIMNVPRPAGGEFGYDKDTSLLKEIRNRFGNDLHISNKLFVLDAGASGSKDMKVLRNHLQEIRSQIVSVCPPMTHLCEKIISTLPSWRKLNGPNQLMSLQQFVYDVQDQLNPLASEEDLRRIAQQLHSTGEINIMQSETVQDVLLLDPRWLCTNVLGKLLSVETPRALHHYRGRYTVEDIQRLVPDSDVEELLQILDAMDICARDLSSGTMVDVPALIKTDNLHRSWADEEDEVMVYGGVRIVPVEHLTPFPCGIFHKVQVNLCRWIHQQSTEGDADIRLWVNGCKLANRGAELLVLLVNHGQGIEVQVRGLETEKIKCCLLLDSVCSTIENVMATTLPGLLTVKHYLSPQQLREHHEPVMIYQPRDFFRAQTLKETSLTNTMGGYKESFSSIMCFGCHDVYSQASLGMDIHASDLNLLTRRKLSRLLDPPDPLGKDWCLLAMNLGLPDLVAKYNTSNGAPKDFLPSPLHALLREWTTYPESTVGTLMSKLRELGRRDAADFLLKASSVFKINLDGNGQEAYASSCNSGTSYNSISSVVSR
UniProt P06493, whole entry: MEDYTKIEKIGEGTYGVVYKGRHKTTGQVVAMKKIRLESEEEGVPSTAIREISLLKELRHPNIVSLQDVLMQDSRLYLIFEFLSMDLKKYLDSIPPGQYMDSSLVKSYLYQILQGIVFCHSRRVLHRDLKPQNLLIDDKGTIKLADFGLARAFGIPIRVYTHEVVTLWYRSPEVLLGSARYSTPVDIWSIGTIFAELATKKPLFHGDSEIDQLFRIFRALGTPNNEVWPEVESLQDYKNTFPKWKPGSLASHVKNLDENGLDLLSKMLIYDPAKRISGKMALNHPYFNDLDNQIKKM
UniProt Q9Y243: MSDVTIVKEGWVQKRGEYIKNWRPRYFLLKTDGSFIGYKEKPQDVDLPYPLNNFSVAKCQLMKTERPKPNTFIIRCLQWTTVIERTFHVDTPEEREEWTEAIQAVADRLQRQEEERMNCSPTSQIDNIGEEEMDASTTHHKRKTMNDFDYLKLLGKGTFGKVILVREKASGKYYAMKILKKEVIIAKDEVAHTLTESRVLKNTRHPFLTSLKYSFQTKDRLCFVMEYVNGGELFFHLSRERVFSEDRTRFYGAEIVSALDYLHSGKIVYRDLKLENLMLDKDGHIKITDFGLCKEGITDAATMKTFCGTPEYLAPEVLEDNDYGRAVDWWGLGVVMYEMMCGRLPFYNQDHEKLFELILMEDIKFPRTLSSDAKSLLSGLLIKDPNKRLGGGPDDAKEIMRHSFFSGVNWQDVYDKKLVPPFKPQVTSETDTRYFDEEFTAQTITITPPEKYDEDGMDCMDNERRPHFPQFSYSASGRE
UniProt Q16539, whole entry: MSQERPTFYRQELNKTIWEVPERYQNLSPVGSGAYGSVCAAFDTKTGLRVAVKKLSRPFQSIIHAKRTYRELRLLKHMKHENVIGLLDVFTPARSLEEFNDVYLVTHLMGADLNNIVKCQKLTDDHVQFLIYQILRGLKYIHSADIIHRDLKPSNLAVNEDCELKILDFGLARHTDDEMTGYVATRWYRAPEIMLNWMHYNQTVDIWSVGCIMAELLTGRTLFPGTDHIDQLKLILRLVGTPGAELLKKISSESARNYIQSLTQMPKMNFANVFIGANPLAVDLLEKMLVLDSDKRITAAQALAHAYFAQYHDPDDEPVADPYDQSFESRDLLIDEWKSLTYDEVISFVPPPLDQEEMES
UniProt Q9H422: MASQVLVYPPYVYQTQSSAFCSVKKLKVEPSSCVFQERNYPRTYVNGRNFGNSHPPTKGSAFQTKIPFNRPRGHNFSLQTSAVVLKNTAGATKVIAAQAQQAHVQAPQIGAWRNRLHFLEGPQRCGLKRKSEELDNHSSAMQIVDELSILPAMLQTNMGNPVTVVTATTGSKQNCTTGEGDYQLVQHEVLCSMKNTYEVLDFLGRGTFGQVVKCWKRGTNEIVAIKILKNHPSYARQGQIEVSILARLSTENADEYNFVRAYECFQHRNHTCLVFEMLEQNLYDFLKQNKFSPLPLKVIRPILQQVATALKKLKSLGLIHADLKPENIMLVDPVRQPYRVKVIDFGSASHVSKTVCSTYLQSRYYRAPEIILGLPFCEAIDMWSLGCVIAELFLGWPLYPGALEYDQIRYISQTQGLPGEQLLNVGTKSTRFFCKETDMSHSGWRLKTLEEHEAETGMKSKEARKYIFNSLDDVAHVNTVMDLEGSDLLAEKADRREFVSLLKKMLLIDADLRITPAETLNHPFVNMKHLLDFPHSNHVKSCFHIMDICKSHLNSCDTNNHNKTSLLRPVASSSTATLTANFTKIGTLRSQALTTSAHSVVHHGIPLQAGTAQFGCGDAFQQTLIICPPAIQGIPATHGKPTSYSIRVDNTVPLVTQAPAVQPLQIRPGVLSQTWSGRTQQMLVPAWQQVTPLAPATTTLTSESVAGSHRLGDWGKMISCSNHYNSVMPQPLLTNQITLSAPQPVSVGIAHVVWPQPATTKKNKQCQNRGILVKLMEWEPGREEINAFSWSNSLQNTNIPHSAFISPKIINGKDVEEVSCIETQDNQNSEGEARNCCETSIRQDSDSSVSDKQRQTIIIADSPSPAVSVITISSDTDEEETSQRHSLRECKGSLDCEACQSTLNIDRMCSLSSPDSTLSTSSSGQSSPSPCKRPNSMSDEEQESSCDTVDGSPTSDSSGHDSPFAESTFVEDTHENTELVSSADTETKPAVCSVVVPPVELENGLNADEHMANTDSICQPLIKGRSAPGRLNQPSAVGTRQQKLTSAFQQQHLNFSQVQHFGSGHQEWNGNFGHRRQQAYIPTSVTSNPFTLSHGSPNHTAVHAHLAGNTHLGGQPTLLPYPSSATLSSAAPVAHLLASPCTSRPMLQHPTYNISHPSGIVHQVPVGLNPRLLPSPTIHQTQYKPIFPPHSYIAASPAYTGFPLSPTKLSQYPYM
UniProt P35916, 25-1363: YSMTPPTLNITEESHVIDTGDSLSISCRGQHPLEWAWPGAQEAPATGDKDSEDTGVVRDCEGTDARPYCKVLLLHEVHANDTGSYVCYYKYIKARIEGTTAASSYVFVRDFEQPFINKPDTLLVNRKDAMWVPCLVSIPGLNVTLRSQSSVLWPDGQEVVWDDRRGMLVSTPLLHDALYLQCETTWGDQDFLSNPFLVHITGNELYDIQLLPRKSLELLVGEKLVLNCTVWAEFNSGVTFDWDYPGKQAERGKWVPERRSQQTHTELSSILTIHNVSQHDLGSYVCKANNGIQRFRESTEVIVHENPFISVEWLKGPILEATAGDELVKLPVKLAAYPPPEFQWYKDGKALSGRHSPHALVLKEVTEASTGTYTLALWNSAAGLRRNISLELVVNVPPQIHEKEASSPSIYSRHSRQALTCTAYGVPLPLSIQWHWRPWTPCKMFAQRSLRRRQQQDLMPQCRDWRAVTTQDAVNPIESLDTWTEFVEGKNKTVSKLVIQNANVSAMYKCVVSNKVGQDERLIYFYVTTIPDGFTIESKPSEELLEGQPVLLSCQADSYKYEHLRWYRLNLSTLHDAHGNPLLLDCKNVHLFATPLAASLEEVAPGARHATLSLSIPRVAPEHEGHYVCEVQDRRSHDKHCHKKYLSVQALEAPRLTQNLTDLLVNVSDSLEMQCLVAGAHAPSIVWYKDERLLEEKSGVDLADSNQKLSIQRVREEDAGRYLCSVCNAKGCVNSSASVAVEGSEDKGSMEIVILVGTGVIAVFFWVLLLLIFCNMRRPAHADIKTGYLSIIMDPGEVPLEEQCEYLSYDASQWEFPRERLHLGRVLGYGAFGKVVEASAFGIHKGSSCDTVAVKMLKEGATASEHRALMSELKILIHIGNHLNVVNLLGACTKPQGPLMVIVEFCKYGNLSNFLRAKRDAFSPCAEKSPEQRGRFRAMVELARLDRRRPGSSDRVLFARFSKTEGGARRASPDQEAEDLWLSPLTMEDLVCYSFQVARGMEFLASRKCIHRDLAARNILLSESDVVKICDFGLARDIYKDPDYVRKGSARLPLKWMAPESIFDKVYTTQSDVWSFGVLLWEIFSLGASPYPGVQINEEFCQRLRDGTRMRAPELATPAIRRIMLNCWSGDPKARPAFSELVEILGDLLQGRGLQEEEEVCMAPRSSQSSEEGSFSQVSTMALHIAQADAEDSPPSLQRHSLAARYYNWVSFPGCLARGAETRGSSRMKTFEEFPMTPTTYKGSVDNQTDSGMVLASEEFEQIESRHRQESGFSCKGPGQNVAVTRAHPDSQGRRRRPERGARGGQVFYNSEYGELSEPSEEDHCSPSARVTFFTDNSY
UniProt Q9H4B4: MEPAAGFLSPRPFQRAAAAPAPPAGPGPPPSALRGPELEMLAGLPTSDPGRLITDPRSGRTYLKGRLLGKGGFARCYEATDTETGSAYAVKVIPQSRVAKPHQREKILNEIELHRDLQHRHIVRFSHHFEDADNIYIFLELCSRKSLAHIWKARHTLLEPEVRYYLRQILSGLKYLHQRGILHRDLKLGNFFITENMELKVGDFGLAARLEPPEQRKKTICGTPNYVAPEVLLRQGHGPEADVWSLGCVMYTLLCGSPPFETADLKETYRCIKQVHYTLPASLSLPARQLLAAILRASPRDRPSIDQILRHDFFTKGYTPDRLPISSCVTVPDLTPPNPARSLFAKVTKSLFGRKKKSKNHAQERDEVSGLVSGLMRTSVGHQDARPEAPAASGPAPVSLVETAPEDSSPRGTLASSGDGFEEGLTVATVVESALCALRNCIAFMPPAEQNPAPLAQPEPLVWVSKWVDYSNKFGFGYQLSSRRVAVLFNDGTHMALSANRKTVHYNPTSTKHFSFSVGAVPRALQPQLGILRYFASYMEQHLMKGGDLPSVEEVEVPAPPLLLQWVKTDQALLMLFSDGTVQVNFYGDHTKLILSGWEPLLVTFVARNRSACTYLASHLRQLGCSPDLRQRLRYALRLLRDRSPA

Among the targets are CHK2(h) (Homo sapiens, UniProt O96017); eEF-2K(h) (Homo sapiens, UniProt O00418); DAPK1(h) (Homo sapiens, UniProt P53355); Ab1(Y253F)(h) (Homo sapiens, UniProt P00519, Y253F); cKit(V654A)(h) (Homo sapiens, UniProt P10721, V654A); Flt3(D835Y)(h) (Homo sapiens, UniProt P36888, D835Y); CDK1/cyclinB(h) (Homo sapiens, UniProt P06493); PKBγ(h) (Homo sapiens, UniProt Q9Y243); SAPK2a(h) (Homo sapiens, UniProt Q16539); Ab1(Q252H)(h) (Homo sapiens, UniProt P00519, Q252H); HIPK3(h) (Homo sapiens, UniProt Q9H422); Flt4(h) (Homo sapiens, UniProt P35916); JNK2α2(h) (Homo sapiens, UniProt P45984); Plk3(h) (Homo sapiens, UniProt Q9H4B4).

Test in all cases: Kinase Profiling Assay
Holding throughout (assay type): biochemical
Common to all, as to settings: 100 μM

A further test has as its target T1, CHK1(h) (Homo sapiens, UniProt O14757).
T1 sequence (O14757 1-476): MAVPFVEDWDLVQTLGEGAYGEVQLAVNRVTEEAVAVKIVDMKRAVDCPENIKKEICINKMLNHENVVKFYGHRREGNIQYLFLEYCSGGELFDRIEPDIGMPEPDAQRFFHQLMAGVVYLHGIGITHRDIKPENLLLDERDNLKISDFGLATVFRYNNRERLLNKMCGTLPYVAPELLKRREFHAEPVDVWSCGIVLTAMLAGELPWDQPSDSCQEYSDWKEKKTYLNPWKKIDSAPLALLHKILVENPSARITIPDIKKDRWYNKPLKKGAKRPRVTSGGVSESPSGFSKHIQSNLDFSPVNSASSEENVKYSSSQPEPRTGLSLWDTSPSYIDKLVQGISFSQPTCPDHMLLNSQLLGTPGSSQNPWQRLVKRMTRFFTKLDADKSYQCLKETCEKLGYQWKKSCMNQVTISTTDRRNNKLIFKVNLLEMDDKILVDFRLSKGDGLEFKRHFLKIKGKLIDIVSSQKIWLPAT

For the next test, the target named is T2, PRAK(h) (Homo sapiens, UniProt Q8IW41).
T2 sequence (Q8IW41 1-473): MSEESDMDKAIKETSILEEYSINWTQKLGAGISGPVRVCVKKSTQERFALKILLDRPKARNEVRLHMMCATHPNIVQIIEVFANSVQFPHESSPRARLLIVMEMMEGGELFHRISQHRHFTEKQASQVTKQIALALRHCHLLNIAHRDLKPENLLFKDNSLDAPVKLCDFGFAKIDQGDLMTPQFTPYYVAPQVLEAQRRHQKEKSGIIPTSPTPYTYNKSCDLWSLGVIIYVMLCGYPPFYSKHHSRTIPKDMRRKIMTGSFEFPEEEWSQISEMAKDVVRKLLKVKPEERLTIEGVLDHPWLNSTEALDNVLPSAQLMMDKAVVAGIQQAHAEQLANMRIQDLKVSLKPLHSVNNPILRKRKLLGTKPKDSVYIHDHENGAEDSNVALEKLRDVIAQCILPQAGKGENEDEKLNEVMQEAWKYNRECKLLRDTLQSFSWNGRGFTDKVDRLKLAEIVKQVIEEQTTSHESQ

A further test addresses T3, MKK7β(h) (Homo sapiens, UniProt O14733).
T3 sequence (O14733 1-419): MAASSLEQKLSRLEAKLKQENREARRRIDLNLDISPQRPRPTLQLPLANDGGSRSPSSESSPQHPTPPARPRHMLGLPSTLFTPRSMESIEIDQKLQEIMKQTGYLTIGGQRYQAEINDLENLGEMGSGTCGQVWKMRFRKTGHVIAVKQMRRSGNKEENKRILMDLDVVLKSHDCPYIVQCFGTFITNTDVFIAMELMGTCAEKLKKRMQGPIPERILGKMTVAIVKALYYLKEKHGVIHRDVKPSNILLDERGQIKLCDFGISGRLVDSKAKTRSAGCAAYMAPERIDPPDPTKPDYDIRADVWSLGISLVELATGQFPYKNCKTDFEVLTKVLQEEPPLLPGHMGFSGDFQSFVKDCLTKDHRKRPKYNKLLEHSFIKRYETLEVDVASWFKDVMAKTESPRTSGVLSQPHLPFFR

A further test addresses T4, SGK(h) (Homo sapiens, UniProt O00141).
T4 sequence (O00141 1-431): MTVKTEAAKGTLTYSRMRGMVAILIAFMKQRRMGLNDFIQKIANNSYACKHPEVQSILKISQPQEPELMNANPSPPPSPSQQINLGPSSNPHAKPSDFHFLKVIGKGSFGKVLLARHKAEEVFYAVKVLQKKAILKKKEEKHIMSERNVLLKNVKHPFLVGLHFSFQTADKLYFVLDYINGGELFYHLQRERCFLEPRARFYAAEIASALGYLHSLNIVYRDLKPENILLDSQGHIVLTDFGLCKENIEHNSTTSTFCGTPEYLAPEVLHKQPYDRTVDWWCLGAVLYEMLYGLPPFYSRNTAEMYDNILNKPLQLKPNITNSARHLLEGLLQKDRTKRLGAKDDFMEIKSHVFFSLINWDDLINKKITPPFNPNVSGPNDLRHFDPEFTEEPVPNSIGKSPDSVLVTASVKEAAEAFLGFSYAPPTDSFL

“YARAAARQARAKALNRQLGVA (Mammalian) [MMI-0200]”: the “% activity” value worked out at 105% in the test with CHK2(h); 136% in the test with eEF-2K(h); 113% in the test with DAPK1(h); 102% with Ab1(Y253F)(h); 113% in the test with cKit(V654A)(h); 115% with Flt3(D835Y)(h). In addition, the “% activity” value with CHK1(h) worked out at 115%; with PRAK(h) it was 115%; in the test with MKK7β(h), 117%; with CDK1/cyclinB(h) it was 115%; in the test with PKBγ(h) it was 103%; with SAPK2a(h) it was 107%. The “% activity” value with Ab1(Q252H)(h) is given as 107%; with HIPK3(h), 105%; with Flt4(h) it was 105%; in the test with JNK2α2(h) it was 109%; in the test with SGK(h), 115%; with Plk3(h), 107%.
